Experiment [1] concerns the target Delta-type opioid receptor (Homo sapiens, UniProt P41143). Nature of the experiment: biochemical.
Another experiment has as its target Mu-type opioid receptor (Homo sapiens, UniProt P35372). Nature of the experiment: biochemical.

Sequences of proteins named here, by UniProt entry; tags and fusion partners are left off.
UniProt P41143, whole entry: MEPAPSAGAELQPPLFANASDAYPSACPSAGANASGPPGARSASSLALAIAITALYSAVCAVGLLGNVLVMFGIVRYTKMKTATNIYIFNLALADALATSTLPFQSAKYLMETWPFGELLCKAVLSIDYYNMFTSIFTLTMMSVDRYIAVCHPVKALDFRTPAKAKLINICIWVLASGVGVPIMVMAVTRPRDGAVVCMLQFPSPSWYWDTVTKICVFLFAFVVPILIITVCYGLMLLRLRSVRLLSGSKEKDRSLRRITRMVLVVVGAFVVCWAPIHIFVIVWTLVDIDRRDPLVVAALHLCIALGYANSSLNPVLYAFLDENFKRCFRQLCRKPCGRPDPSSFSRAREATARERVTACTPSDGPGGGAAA
UniProt P35372, whole entry: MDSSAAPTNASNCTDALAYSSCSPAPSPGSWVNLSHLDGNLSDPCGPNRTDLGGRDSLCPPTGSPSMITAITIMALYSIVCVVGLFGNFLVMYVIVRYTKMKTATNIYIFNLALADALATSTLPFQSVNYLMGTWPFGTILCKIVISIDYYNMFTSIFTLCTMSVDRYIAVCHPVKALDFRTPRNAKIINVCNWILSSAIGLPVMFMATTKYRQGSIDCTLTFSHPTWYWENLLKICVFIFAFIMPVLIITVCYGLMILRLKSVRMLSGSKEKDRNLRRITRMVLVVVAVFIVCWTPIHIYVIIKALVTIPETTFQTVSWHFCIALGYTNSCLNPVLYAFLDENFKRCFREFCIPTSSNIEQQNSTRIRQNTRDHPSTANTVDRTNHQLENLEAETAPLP

Molecules are shown by their SMILES. pEC50: −log10 of the molar value.

By pEC50 is commonly meant the EC50 on a negative log10 scale, so that one unit is a factor of ten. A higher pEC50 goes with a small EC50. For the molecule `Cl.Cl.O=C(O)CN[C@@H]1CC[C@@]2(OCCCc3ccccc3)[C@H]3Cc4ccc(O)c5c4[C@@]2(CCN3CC2CC2)[C@H]1O5`, the pEC50 in experiment [1] is 8.37; on Mu-type opioid receptor it was 8.97.

Values taken from ChEMBL document CHEMBL1671784 (J Med Chem, 2011).
